# Tested on: Veratrine-stimulated Ca uptake, synaptosomes prepared from rat brain
# Assay type: biochemical, rat (Wistar)
# Settings: veratrine 20 μmoles/l, pH 7.4, 37° C., 20 seconds, read-out: Inhibition of Veratrine-stimulated Ca uptake IC50
structure (smiles),measurement,value
"COCCOC(=O)C1=C(C)NC(C)=C(C(=O)OC(C)C)C1c1cccc([N+](=O)[O-])c1 (stereo not shown) [nimodipine, isopropyl 2methoxyethyl 1,4dihydro-2,6-dimethyl-4-(mnitrophenyl)-3,5-pyridinedicarboxylate]",IC50,6.7 µM
